The test system of assay [1] is human leukemic cell line. The experiment in a line: Apoptosis of human leukemic (AML) cell line.
The target of assay [2] is recombinant Stat3 binding to immobilized EGFR Y1068 phosphododecapeptide (Homo sapiens, UniProt P40763). The experiment in a line: Stat3 SH2/pY-peptide binding assay (SPR, BIAcore). Background: In SPR one partner is held on a chip, and binding of the other changes the refractive index at the surface.
In assay [3] the test system is SUM159PT and HS578T cells. The experiment in a line: Mammosphere formation (MSFE). Type of assay: cell-based.
Assay [4] has as its system MEF/GFP-Stat3α cells. The experiment in a line: High-throughput fluorescence microscopy (HTFM) cytoplasmic-to-nuclear translocation of GFP-Stat3α. Type of assay: cell-based, murine. As to conditions: read-out: HTFM IC50; Table 5; mean ± SD. Here is the method:
Coverslips were examined by confocal fluorescent microscopy using filters to detect GFP (column one), DAPI (column two) or both (merge; column three). In panel B, MEF-GFP-Stat3 cells were grown in 96-well plates with optical glass bottoms and pretreated with the indicated compound at the indicated concentrations in quadruplicate for 1 hour then stimulated with IL-6 (200 ng/ml) and IL-6sR (250 ng/ml) for 30 minutes. Cells were fixed and the plates were examined by high-throughput microscopy to determine the fluorescence intensity in the nucleus (FLIN) and the % ΔFLINMax was calculated as described in Example 1. Data shown are mean±SD and are representative of 2 or more studies. […]
Confocal and high-throughput fluorescence microscopy. Confocal and highthroughput fluorescence microscopy (HTFM) of MEF/GFP-Stat3α cells were performed as described (Huang et al., 2007). Briefly, for confocal fluorescence microscopy, cells were grown in 6-well plates containing a cover slip. […] Plates were analyzed by automated HTFM using the Cell Lab IC Image Cytometer (IC100) platform and CytoshopVersion 2.1 analysis software (Beckman Coulter). Nuclear translocation is quantified by using the fraction localized in the nucleus (FLIN) measurement (Sharp et al., 2006). […]
EXP IIB. High throughput fluorescence microscopy (HTFM), cytoplasm-to-nucleus translocation inhibition assays. […]

The chains behind the UniProt entries cited, without tags or fusion partners.
UniProt P40763, whole entry: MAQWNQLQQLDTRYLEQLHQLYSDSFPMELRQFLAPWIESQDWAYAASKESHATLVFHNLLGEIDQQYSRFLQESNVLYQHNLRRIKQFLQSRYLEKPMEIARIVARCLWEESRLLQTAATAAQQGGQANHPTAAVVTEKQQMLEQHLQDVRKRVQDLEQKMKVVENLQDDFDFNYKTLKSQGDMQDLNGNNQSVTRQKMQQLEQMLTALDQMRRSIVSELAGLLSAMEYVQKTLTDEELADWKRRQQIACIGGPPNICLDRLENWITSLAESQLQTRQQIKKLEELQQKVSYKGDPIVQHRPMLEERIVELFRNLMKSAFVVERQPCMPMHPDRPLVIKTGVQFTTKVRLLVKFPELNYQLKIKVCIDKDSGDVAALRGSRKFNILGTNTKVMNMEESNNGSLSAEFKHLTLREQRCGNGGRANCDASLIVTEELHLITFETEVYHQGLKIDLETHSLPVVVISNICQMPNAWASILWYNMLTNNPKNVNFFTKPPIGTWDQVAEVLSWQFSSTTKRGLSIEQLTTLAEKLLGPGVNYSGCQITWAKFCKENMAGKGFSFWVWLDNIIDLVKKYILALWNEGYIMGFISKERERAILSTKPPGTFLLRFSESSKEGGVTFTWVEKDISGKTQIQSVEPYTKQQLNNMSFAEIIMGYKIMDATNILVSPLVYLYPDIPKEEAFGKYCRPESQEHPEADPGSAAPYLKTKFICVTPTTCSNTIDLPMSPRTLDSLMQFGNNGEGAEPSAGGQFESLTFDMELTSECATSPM

As to `O=S(=O)(Nc1cc(Sc2nc[nH]n2)c(O)c2ccccc12)c1ccc(Br)cc1`, in assay [1], the “activity in inducing human leukemic cell line apoptosis compared with parent Cpd188” value is “a log greater activity”. The “SPR IC50 compared with parent Cpd188” value in assay [2] (2nd generation probes) is reported as “one log lower”. Moreover, the IC50 – broadly, the concentration at which inhibition is half-maximal – came to 2000 nM in assay [2] (read-out: SPR IC50, Table 5, mean ± SD); 3000 nM in assay [3] (read-out: Mammosphere ~ IC50, SUM159PT and HS578T cells, compound at 1, 10 or 100 μM, 3 d, spheres counted on day 3); 49000 nM in assay [4]. Moreover, the “activity in decreasing MSFE compared with parent Cpd188” value in assay [3] came out at 1 log.
